According to patent US10538099B2, “Inkjet recording apparatus, printer, and method for manufacturing cured product” (Ricoh Company, Ltd., priority 2016, dated 2020):

Experiments:
[1] = risk phrase code R43 or H317; cited from earlier work
female mice = test: Skin sensitization test according to the LLNA (Local Lymph Node Assay), BrdU intake; assay type: in vivo; conditions: test substance 50.0 w/v % in acetone/olive oil 4/1, 25 μL/auricle once a day for three days; SI less than 3 = negative in skin sensitizing property
Procedure: Stimulus index (SI) was measured by a skin sensitization test according to the LLNA (Local Lymph Node Assay) as follows.
As a positive control, α-hexyl cinnamaldehyde (HCA, product of Wako Pure Chemical Industries, Ltd.) was used.
As a medium, a mixture liquid of acetone (product of Wako Pure Chemical Industries, Ltd.) and olive oil (product of Fudimi Pharmaceutical Co., Ltd.) in a volume ratio of 4/1 was used.
Before treated with the test materials, the positive control, or the medium control, female mice were acclimated for 8 days including 6-day quarantine. No abnormalities were found in all the mice (used animals) during the quarantine/acclimation period.
Based on the body weights measured 2 days before the initiation of sensitization, they were categorized into 2 groups (4 mice/group) by the body weight stratified random sampling method so that the body weight of each individual was within ±20% of the average body weight of all the individuals. Each of the used animals was 8 weeks old to 9 weeks old at the time of the initiation of sensitization. […]
About 24 hours after the administration of BrdU, the used animals were allowed to undergo euthanasia, and their auricular lymph nodes were sampled. […] Also, the average of the weights of the auricular lymph nodes and the standard error thereof were calculated for each group. […]

Row | Substance | skin sensitizing property [1] | SI measured by the LLNA test (stimulus index) (female mice)
1 | Ethylene-oxide-modified trimethylolpropane triacrylate | Positive | 
2 | Ethylene-oxide-modified trimethylolpropane trimethacrylate |  | 1.0
